ChEMBL document CHEMBL3351561, “Discovery of 9-(1-anilinoethyl)-2-morpholino-4-oxo-pyrido[1,2-a]pyrimidine-7-carboxamides as PI3Kβ/δ inhibitors for the treatment of PTEN-deficient tumours” (Bioorg Med Chem Lett, 2014)

Amino acid sequences for entries named in this document (tags omitted). A change or cut given only in a name is not applied to a line headed by its entry.
UniProt P42338: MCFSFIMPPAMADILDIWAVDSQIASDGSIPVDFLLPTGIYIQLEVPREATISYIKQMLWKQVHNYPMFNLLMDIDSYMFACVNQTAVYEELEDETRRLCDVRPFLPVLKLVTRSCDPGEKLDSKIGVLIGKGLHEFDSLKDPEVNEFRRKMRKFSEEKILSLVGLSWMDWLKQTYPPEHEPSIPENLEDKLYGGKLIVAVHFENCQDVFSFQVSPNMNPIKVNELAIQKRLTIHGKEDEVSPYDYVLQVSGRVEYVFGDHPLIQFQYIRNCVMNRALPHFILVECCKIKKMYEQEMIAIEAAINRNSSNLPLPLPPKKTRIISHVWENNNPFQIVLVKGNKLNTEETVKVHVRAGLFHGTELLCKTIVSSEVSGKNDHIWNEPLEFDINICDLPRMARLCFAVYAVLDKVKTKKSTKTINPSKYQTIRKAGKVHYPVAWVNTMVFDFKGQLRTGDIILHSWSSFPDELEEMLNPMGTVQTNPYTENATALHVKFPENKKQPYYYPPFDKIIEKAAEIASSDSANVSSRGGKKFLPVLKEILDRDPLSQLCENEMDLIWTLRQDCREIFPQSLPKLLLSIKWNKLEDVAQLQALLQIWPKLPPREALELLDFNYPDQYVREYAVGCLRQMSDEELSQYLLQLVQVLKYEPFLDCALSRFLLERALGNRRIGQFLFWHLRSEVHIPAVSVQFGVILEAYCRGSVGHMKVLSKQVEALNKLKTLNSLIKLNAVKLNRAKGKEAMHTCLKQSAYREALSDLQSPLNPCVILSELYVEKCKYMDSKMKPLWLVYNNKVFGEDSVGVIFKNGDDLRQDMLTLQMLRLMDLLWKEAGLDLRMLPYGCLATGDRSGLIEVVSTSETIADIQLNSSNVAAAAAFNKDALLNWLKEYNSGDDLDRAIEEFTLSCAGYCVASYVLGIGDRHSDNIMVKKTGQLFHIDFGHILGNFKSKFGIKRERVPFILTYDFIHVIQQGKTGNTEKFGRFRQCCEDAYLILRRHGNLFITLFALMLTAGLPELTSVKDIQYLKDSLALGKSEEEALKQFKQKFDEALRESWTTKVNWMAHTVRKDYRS

Biological target: Phosphatidylinositol 4,5-bisphosphate 3-kinase catalytic subunit beta isoform (Homo sapiens, UniProt P42338)

- IC50: 22 nM
SMILES: Cc1cc(C(C)Nc2ccccc2)c2nc(N3CCOCC3)cc(=O)n2c1 (racemic)
